The target in the test is T1, H2 histamine receptors (Cavia porcellus, UniProt P47747).
T1 construct: from tissue; host or cells: guinea pig right atrium (isolated, spontaneously beating)
In words: guinea pig heart atrium test (histamine-induced positive chronotropic response in spontaneously beating right atrium). It counts as cell-based. As to conditions: 32° C., pH 7.4, 30 minutes after addition of compound, vs histamine dose-response, read-out: pA2 Value (apparent dissociation constant of the H2 antagonist) (converted). The method, then: The procedures for the results of these tests are presented at the end of the following examples, which will serve to illustrate the present invention.
The guinea pig heart atrium test is carried out as follows:
A guinea pig right atrium is suspended at 1 g. tension (isometric) in a thermostatically controlled (32° C.) tissue bath (10 ml) containing oxygenated (95% O2; 5% CO2) Krebs-Haenseleit buffer (pH 7.4). The tissue is allowed to stabilize over 1 hour. Individual contractions are recorded with a force-displacement transducer through a strain gauge coupler. A control dose-response curve to histamine in the above described tissue bath is obtained after which the tissue is washed 3 times and allowed to re-equilibrate to basal rate. The test compound is added to the tissue bath at the desired final concentration. Thirty minutes after addition of the compound, a fresh histamine dose response curve is again obtained. Then the response to histamine in the presence of antagonist is compared to the histamine control response. This procedure is repeated, using fresh tissues, for each concentration of antagonist tested. The result is expressed as the apparent dissociation constant (pA2) of the H2 antagonist as determined by standard procedures. Cimetidine is used as the standard for this test.

Amino acid sequences for entries named in this document (tags omitted).
UniProt P47747, whole entry: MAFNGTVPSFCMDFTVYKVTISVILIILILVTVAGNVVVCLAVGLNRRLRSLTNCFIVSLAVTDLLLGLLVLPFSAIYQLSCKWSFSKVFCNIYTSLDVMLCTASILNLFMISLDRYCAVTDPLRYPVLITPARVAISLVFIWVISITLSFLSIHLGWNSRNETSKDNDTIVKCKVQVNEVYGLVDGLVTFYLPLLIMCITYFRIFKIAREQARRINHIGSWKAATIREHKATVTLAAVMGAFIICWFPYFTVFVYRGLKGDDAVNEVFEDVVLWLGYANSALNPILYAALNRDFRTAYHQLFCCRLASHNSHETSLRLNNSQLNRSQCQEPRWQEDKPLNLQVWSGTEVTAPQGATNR

SMILES strings stand for the structures.

Consider `CN/C(=N/CCSCc1nc[nH]c1C)NC#N` [Cimetidine], for which the Kb is 316 nM.

The values are drawn from patent US4447611A, “Benzo-fused and heterocyclic fused imidazole anti-ulcer agents” (American Home Products Corporation, priority 1982, dated 1984).
